Reference: patent US7132417B2 (dated 2006)

Protein sequences, listed by entry. Tags and fused reporters are not part of them.
UniProt P03372, whole entry: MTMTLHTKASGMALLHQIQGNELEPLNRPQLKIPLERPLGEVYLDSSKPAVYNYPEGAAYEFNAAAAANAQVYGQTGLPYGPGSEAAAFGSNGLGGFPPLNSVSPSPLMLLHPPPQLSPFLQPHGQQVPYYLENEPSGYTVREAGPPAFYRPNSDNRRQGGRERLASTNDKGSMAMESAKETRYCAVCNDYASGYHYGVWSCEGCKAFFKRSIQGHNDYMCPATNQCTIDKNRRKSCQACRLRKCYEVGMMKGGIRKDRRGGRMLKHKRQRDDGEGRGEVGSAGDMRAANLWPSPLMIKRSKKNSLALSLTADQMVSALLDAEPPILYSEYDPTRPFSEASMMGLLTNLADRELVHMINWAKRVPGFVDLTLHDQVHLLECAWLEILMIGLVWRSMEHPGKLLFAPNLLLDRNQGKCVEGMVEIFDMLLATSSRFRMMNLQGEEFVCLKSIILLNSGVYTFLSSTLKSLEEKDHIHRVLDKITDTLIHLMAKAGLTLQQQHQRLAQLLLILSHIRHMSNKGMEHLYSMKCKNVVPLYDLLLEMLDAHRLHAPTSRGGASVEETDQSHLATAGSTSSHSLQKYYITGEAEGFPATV

Biological target: estrogen receptor (Homo sapiens, UniProt P03372)
Assay: In vitro estrogen receptor binding assay ([3H]-17β-estradiol competition)

IC50: 9 nM
Compound: Cc1c(-c2cccc(O)c2)n(Cc2ccc(OCCN3CCCCCC3)cc2)c2ccc(O)cc12 [compound 128, 1-[4-(2-Azepan-1-yl-ethoxy)-benzyl]-2-(3-hydroxy-phenyl)-3-methyl-1H-indole-5-ol]
